Experimental findings from publication PMC7395062, “Multiparametric assessment of mitochondrial respiratory inhibition in HepG2 and RPTEC/TERT1 cells using a panel of mitochondrial targeting agrochemicals” (Archives of Toxicology, 2020) are described below.

The test system of this assay is CII/CIII (succinate dehydrogenase / cytochrome bc1 complex). In kind it is cell-based, human. As for the experimental part: The test compound is injected and OCR is measured. […] OCR is measured for the second time. […] A third and final OCR measurement is conducted.
Compounds were injected sequentially and OCR was measured twice. […] ETC inhibition is determined in decreased OCR.
All results are average of 2–3 independent experiments.

Consider `CO/N=C(/C(=O)OC)c1ccccc1COc1ccccc1C` [Kresoxim-methyl], for which the “ETC-complex specificity pattern (CII/CIII)” value is “conformed to this pattern”.
